For data set [1], the target named is Sigma non-opioid intracellular receptor 1 (Homo sapiens, UniProt Q99720). Briefly: DRUGMATRIX: Sigma1 radioligand binding (ligand: [3H] Haloperidol). The note with it: Not Active = under 50% inhibition at 10 µM. Type of data set: cell membranes, Jurkat, Membrane.
The target in another data set is Estrogen receptor beta (Homo sapiens, UniProt Q92731). The note with it: sf9. Also: in other assays of this panel Not Active means under 50% inhibition at 10 µM.
For data set [2], the target named is Voltage-gated inwardly rectifying potassium channel KCNH2 (Homo sapiens, UniProt Q12809). The note with it: hek293. Also: in other assays of this panel Not Active means under 50% inhibition at 10 µM.
A further data set addresses Adenosine receptor A1 (Homo sapiens, UniProt P30542). Type of data set: cell membranes, Membrane. The note with it: cho.
Another data set deals with Cytochrome P450 1A2 (Homo sapiens, UniProt P05177). The note with it: bti-tn-5b1-4.

Chains of the proteins cited; added tags and fusions are not shown. Lines headed by an entry give the natural chain unless they say otherwise; changes in a name come on top.
UniProt Q99720, whole entry: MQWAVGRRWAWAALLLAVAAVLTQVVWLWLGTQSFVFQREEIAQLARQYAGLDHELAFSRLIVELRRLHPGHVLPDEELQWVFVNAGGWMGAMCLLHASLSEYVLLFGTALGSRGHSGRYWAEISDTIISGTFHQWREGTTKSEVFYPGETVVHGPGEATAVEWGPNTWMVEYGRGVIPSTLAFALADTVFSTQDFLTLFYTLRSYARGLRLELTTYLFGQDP
UniProt Q92731, whole entry: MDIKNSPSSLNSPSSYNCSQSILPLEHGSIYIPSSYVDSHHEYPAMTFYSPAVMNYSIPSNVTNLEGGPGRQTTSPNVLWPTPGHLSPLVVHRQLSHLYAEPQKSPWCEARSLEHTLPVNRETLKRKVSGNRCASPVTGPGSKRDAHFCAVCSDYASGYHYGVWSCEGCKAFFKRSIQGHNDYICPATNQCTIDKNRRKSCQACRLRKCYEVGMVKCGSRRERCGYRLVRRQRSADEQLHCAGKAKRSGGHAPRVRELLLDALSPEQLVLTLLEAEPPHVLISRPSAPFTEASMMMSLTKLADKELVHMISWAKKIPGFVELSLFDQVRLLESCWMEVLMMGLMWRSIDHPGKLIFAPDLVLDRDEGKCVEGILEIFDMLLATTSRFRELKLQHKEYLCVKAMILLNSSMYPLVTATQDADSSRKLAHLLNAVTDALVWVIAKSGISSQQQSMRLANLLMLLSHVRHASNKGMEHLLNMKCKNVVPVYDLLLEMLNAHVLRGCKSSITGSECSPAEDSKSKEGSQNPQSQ
UniProt Q12809: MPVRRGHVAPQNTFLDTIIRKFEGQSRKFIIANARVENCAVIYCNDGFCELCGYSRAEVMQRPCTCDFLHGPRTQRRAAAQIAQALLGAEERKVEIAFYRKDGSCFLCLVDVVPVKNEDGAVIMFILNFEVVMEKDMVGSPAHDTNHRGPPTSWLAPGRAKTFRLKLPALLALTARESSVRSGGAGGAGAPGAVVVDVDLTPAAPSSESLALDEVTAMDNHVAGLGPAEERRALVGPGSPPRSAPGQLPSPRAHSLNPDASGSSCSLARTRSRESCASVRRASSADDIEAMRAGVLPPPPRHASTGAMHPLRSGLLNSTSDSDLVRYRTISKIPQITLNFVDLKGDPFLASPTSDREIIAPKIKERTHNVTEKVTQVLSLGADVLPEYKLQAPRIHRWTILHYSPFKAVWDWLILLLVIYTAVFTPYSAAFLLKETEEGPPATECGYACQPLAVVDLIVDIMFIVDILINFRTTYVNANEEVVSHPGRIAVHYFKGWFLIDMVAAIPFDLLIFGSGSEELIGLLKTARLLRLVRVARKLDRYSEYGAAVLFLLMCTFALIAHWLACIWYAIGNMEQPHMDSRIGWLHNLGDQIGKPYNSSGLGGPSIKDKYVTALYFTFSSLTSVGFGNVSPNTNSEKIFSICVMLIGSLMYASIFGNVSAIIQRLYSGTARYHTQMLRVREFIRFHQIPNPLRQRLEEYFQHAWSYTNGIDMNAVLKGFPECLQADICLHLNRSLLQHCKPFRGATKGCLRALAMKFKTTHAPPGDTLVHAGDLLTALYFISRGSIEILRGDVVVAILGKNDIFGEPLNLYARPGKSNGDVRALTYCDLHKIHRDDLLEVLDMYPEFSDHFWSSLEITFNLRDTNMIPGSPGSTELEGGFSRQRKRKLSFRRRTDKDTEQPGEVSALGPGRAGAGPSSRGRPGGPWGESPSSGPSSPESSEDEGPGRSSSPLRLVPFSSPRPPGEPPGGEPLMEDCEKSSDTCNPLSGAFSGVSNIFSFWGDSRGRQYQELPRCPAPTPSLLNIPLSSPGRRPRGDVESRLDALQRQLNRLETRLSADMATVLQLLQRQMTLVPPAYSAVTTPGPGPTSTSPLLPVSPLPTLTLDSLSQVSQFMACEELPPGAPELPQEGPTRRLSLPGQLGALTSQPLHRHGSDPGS
UniProt P30542, whole entry: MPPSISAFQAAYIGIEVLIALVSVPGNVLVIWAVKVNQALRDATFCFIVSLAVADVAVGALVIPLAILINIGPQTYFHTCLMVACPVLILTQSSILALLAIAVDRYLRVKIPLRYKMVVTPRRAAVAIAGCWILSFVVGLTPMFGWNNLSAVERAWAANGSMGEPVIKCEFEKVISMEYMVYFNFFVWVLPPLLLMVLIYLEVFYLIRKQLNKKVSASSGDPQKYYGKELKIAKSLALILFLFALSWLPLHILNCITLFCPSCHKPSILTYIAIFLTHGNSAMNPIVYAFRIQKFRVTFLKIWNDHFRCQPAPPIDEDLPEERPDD
UniProt P05177, whole entry: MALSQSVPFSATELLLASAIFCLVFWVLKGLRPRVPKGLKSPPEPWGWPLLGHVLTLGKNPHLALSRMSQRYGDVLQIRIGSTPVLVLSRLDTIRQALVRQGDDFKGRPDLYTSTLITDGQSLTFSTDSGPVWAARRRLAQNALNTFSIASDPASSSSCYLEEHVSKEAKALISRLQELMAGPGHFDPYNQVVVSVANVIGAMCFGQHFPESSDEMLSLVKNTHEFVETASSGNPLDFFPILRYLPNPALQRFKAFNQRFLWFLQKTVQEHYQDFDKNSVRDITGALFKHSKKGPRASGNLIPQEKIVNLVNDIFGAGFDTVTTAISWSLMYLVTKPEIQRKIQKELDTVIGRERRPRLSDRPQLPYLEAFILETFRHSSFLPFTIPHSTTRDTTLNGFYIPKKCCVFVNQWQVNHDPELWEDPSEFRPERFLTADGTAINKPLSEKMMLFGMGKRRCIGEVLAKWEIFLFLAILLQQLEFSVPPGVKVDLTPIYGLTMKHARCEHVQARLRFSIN

On to `CN(C)CCCN1c2ccccc2Sc2ccc(Cl)cc21` [CHLORPROMAZINE], for which, in data set [1], the affinity corresponds to a Ki of 189 nM.
`C[C@]12CC[C@@H]3c4ccc(O)cc4CC[C@H]3[C@@H]1CC[C@@H]2O` [ESTRADIOL]: the IC50 result against Estrogen receptor beta is on record as “Not Active”.
Take `Nc1nnc(-c2cccc(Cl)c2Cl)c(N)n1` [LAMOTRIGINE]: in data set [2], the IC50 result was “Not Active” and the Ki – broadly, a measure of affinity in units of concentration, obtained from inhibition or displacement – is “Not Active”.
`Cn1c(=O)c2c(ncn2C)n(C)c1=O` [CAFFEINE]: the IC50 result on Adenosine receptor A1 is recorded as “Not Active”.
As for `O=c1cc(-c2ccccc2)oc2c1ccc1ccccc12` [ALPHA-NAPHTHOFLAVONE], at Cytochrome P450 1A2, the Ki entry was “Note: corresponding IC50 reported as Active”.

For the origin of these results see ChEMBL document CHEMBL1909046, “DrugMatrix in vitro pharmacology data”.
